Data reported in US20240293387A1, “Methods of Treating Fabry Disease in Pediatric Patients” (Amicus Therapeutics, Inc., priority 2021, published 2024).

Assay: Population PK (popPK) model of migalastat in adults (NONMEM, bootstrap)
Design: species or system human
Details: for Typical EGFR-related estimate, Estimate (% RSE) / Typical total CL/F: Fabry disease
Procedure: A population pharmacokinetics (popPK) model previously developed from healthy adult volunteers and adult patients with Fabry disease after oral migalastat administration. After pooling plasma concentration-time data from Phase I, II, and III studies of AT1001 administered orally in adults using a range of doses from 25 mg to 675 mg and regimens under fasting conditions. […] In contrast, other covariates such as sex, age, drug formulation (solution or suspension vs 25 mg capsule vs 150 mg capsule) were not statistically/clinically significant. Since renal function gradually increases from birth and reaches adult levels by the second year of life (Rubin 1949), there are no expected age-dependent changes in eGFR in the pediatric population 2 years and older than adults. Additionally, pediatric patients with Fabry disease usually have a normal renal function or may experience renal hyperfiltration (Hopkin 2008); therefore, weight-based dosing regimens, assuming that pediatrics have a normal renal function, were planned for the simulations in pediatric Fabry patients. NONMEM program was used to develop the population PK model of migalastat in adults using first-order conditional estimation with interaction (FOCE-I). Simulations were conducted using NONMEM to obtain plasma concentration-time; all graphical analyses were performed using R; noncompartmental analysis and pharmacokinetic parameters summaries were conducted using Phoenix WinNonlin. Bootstrapping and visual predictive checks (VPC)s were conducted using Perl-speaks-NONMEM (PsN) R packages of popED and mrgsolve were used in the optimal sampling strategy. […] The overall purpose of the model development was to come up with a model for pediatric extrapolation. […] Moreover, pediatric CLT/F values extrapolated from the non-renal model were higher than the overall CLT/F approach, resulting in higher pediatric doses for achieving equivalent exposures with adults which was a less conservative approach. Therefore, the overall CLT/F scaling approach is more conservative and was chosen for the final model, which is shown in Table 6. The estimated parameters from bootstrap (see Table 6) were nearly identical to those estimated from the original dataset. All parameters were estimated with adequate precision.

[1] = Bootstrap, EGFR = 90 mL/min/1.73 m^2, body weight ≥ 70 kg
[2] = NONMEM, EGFR = 90 mL/min/1.73 m^2, body weight ≥ 70 kg

OC[C@H]1NC[C@H](O)[C@@H](O)[C@H]1O [migalastat, (2R,3S,4R,5S)-2-(hydroxymethyl) piperdine-3,4,5-triol]
Typical EGFR-related estimate, Estimate (% RSE) [1]: 18.5 (16.0%);
Typical total CL/F [1]: 14.9 L/h
Typical total CL/F (Bootstrap, EGFR = 120 mL/min/1.73 m^2, body weight ≥ 70 kg): 16.4 L/h
Typical EGFR-related estimate, Estimate (% RSE) (Bootstrap, EGFR > 120 mL/min/1.73 m^2, body weight ≥ 70 kg): 20.6 (17.3%);
Typical EGFR-related estimate, Estimate (% RSE) [2]: 18.6 (16.3%);
Typical total CL/F [2]: 14.8 L/h
Typical total CL/F (NONMEM, EGFR = 120 mL/min/1.73 m^2, body weight ≥ 70 kg): 16.5 L/h
Typical EGFR-related estimate, Estimate (% RSE) (NONMEM, EGFR > 120 mL/min/1.73 m^2, body weight ≥ 70 kg): 20.9 (17.4%);
Average range of migalastat exposure with renal function (eGFR values between 30 and 120 mL/min/1.73 m^2): 3 fold
